# Measurements as given in publication PMC12311865, “In Vitro Evaluation of the Potential Interactions of Zearalenone-14-sulfate and Zearalenone-14-glucuronide with Human Cytochrome P450 Enzymes, Organic Anion Transporting Polypeptides, and ATP-Binding Cassette Multidrug Transporters” (ACS Omega, 2025).
# Sequences of proteins named here, by UniProt entry; tags and fusion partners are left off.
# UniProt P05177, whole entry: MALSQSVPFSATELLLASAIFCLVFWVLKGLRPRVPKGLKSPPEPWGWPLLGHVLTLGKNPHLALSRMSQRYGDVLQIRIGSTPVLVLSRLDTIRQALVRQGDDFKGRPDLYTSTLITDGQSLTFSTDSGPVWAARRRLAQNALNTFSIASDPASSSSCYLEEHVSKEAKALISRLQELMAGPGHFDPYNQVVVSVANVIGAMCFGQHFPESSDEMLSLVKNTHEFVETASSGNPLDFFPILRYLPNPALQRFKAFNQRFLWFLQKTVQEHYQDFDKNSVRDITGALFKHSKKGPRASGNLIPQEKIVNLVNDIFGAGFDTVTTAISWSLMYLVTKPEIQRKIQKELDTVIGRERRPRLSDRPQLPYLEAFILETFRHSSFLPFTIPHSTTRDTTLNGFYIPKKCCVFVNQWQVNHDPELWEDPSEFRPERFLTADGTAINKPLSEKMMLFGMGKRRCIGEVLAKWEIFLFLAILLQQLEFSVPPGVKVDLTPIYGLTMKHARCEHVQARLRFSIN
# Molecular target: CYP1A2 (Homo sapiens, UniProt P05177)
compound,measurement,value
"O=c1cc(-c2ccccc2)oc2c1ccc1ccccc12 [α-naphthoflavone, reference compound]",inhibition of CYP1A2 activity,more than 90%
